Reference: ChEMBL document CHEMBL1148282, “A novel series of piperidin-4-yl-1,3-dihydroindol-2-ones as agonist and antagonist ligands at the nociceptin receptor” (2004)
pEC50, pKi: −log10 of the molar value.

Amino acid sequences for entries named in this document (tags omitted).
UniProt P41146, whole entry: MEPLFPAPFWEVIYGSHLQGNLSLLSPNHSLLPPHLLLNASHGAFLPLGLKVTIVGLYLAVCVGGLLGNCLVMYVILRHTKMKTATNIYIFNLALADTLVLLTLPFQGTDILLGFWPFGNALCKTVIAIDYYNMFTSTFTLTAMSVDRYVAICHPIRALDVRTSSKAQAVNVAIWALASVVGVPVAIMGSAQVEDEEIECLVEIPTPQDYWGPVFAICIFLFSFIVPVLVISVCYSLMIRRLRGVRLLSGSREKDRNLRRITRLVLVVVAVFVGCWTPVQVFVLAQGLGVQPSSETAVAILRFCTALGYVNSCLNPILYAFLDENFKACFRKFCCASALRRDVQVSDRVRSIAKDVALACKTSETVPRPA
UniProt P35372, whole entry: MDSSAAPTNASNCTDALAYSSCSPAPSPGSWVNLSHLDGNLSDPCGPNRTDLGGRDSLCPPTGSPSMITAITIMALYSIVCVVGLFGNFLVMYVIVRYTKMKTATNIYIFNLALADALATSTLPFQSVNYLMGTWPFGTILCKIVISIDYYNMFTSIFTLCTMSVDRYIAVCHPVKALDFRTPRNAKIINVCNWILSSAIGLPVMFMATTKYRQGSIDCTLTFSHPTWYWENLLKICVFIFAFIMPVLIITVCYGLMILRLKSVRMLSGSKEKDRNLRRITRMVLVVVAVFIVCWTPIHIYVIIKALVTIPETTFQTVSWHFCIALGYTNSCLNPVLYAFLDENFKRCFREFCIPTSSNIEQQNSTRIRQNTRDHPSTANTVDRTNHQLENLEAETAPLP
UniProt P41145, whole entry: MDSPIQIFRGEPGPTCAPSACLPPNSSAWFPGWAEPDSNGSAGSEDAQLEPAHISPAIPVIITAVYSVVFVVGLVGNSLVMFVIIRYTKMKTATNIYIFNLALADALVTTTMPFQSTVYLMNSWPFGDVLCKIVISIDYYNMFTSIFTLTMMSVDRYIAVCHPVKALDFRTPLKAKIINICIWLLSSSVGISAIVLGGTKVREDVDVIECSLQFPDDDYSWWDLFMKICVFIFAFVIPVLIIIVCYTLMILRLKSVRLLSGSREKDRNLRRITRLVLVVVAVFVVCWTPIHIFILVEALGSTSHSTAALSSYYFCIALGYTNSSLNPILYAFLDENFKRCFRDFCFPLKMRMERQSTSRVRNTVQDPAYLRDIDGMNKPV
UniProt P41143, whole entry: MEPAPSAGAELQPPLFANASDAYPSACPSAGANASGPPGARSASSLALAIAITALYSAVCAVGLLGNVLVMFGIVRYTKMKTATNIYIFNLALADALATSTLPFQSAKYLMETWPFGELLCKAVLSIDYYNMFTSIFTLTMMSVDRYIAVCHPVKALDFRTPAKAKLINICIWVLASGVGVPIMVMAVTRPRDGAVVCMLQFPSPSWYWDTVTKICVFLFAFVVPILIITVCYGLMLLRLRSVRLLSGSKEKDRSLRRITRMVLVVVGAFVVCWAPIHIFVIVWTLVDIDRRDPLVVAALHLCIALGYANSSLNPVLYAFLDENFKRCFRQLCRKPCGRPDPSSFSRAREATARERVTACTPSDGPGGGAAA

How the values were obtained:
Nociceptin receptor [1] = target: T1, Nociceptin receptor (Homo sapiens, UniProt P41146); experiment: Binding affinity against human Nociceptin receptor on CHO cell membranes by [3H]N/OFQ displacement.
Mu-type opioid receptor = Mu-type opioid receptor (Homo sapiens, UniProt P35372); experiment: Binding affinity against human Opioid receptor mu 1 on CHO cell membranes was determined by [3H]DAMGO displacement.
[2] = target: Kappa-type opioid receptor (Homo sapiens, UniProt P41145); experiment: Binding affinity against human Opioid receptor kappa 1 on CHO cell membranes by [3H]U-69593 displacement.
Nociceptin receptor [3] = target: T1, Nociceptin receptor; experiment: Concentration required for stimulation of [35S]GTP-gamma-S, binding to human Nociceptin receptor in cell membranes
[4] = target: Delta-type opioid receptor (Homo sapiens, UniProt P41143); experiment: Binding affinity against human opioid receptor delta 1 transfected on CHO cells was determined using [3H]Cl-DPDPE
Nociceptin receptor [5] = target: T1, Nociceptin receptor; experiment: Concentration required for stimulation of [35S]GTP-gamma-S, binding NOP receptor in cell membranes

| SMILES | pKi (Nociceptin receptor [1]) | pKi (Mu-type opioid receptor) | pKi [2] | pEC50 (Nociceptin receptor [3]) | pKi [4] | pEC50 (Nociceptin receptor [5]) |
| --- | --- | --- | --- | --- | --- | --- |
| CC(C)[C@H]1CC[C@@H](N2CCC(N3C(=O)Cc4ccccc43)CC2)CC1 | 8.40 | 8.10 | 6.83 | 7.58 | – | – |
| O=C1Cc2ccccc2N1C1CCN(C2C3CCCC2CCC3)CC1 (configuration not stated) | – | – | – | – | < 5.00 | – |
| O=C1Cc2ccccc2N1C1CCN(CC2CCCCCCC2)CC1 | – | – | – | – | < 5.00 | < 5.00 |
| CC(C)[C@H]1CC[C@H](N2CCC(N3C(=O)Cc4ccccc43)CC2)CC1 | 7.15 | 7.65 | 6.43 | 6.93 | – | – |
| CC1(C)C2CCC(CN3CCC(N4C(=O)Cc5ccccc54)CC3)C1C2 (configuration not stated) | – | – | – | < 5.00 | – | – |
| CC(c1ccc2c(c1)Cc1ccccc1-2)N1CCC(N2C(=O)Cc3ccccc32)CC1 (configuration not stated) | – | – | – | < 5.00 | – | – |
| O=C1Cc2ccccc2N1C1CCN(C2CCC3CCCC[C@@H]3C2)CC1 (some centres not stated) | 8.33 | 7.79 | 6.86 | 7.13 | – | – |
